Measurements taken from ChEMBL document CHEMBL1126846, “Two new unsaturated fatty acid ethanolamides in brain that bind to the cannabinoid receptor” (J Med Chem, 1993).

Sequences of proteins named here, by UniProt entry; tags and fusion partners are left off. A change or cut given only in a name is not applied to a line headed by its entry.
UniProt P47746: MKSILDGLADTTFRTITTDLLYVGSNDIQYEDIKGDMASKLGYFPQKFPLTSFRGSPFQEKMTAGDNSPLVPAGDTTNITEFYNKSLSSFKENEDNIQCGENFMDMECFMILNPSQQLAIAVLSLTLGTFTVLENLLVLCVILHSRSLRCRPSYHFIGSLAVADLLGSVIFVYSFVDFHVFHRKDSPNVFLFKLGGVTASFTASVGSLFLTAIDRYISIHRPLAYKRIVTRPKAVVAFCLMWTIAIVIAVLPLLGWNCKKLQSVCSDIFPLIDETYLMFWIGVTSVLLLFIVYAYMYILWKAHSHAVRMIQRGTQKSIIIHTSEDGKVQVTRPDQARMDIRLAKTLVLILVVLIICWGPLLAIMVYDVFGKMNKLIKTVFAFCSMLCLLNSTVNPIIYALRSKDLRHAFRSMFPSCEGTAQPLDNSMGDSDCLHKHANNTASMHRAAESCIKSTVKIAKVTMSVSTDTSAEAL
UniProt P47936: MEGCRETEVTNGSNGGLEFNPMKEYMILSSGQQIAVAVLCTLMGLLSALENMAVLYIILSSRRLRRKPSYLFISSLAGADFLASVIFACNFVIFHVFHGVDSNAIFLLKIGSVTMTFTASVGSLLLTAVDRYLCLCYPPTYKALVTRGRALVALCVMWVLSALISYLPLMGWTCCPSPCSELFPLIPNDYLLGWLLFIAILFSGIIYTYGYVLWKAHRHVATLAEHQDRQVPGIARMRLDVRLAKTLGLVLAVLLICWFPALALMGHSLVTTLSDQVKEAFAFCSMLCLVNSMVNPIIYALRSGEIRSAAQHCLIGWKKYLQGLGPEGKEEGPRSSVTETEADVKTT

Target: Cannabinoid receptor (Mus musculus, UniProt P47746+P47936)
Test: Ability to displace [3H]HU-243 binding to cannabinoid receptor in synaptosomal membrane
Format: cell membranes

CCCCC/C=C\C/C=C\C/C=C\C/C=C\CCCC(=O)NCCO [ANANDAMIDE]
Ki: 52 nM
